Results published in PMC6155683, “Pharmacokinetics Studies of 12 Alkaloids in Rat Plasma after Oral Administration of Zuojin and Fan-Zuojin Formulas” (Molecules : A Journal of Synthetic Chemistry and Natural …, 2017).

Experiments:
Caco-2 cell monolayer = conditions: cited from earlier work
[1] = Two-compartment model fitting of C–T curves (DAS 2.0); assay type: in vivo, rat
Text: Double peaks in C–T curves were observed repeatedly in the PK study of ZJ and related TCM prescriptions, but explanations to the phenomenon were still ambiguous. Generally, possible reasons for the double peak phenomenon could be summarized as follows: (a) enterohepatic circulation; […] (c) irregular pattern of gastric emptying. […] Moreover, Tmax of the alkaloids after administration of ZJ extract were deferred from that of FZJ administration. […] It probably play a major role in the double peak phenomenon, since the GI motility can affect the drug absorption.

[2] = Dose modified systemic exposure (AUC0→∞/D, Cmax/D)
Method: Because the alkaloids content in ZJ and FZJ were no longer linear with the proportion of CR and EF after extraction process, AUC0→∞/D (ratio of AUC0→∞ and dose) and Cmax/D (ratio of Cmax and dose) were calculated to estimate the dose modified systemic exposure levels of the 12 alkaloids (Table 3). […] Physicochemical properties of these alkaloids had been calculated in silico to predict their human colon adenocarcinoma cell (Caco-2) permeability according to the three-property based rule (3PRule). Polar surface area (PSA), logarithm of the n-octanol/water distribution coefficient (LogD), molecular weight (MW), hydrogen bond donors (HBD), hydrogen bond acceptors (HBA), number of free rotatable bonds (NRB) and molar solubility (S) of the alkaloids were retrieved from SciFinder® (American Chemical Society).

[3] = Stability of analytes in rat plasma under storage conditions; assay type: physicochemical; conditions: n = 6; for Stability RE, 3 freeze-thaw cycles / Stability RE, 30 days at −20 °C: rat plasma; for Stability RE, processed samples' stability: room temperature 24 h
Method: The stabilities of analytes in plasma were assessed by analyzing the QC samples at three concentration levels under the following storage conditions: after three freeze (−20 °C)-thaw (room temperature) cycles; stored at −20 °C for 30 days, and comparing the results with those of freshly prepared QC samples. Stabilities of the processed samples at room temperature for 24 h were also assessed.

[4] = PK study of the 12 alkaloids in rat plasma after oral administration of ZJ and FZJ extract (LC–MS/MS); assay type: in vivo; conditions: for AUC0→t / AUC0→∞ / Cmax / Csec (drug concentration of the secondary peak in C–T curve) / MRT0→t / MRT0→∞ / t1/2: mean ± SD, n = 6
Method: The time schedule included 15 time-points and six rats were sampled at each time-point. All the rats were orally administered with ZJ extract (suspended in water) at a dose of 3.38 g/kg body weight (dosages of the 12 alkaloids were shown in Table S4), equivalent to crude drug dose of 12 g/kg body weight. Blood samples were collected from the suborbital vein of the rats at 10, 20, 30, 60, 90, 120, 180, 240, 300, 330, 360, 480, 720, 1440, 2160 min after administration, and centrifuged immediately at 5000 rpm for 10 min. The plasma samples were stored at −20 °C until analysis.
Similarly, the time schedule of other rats included 15 time-points and six rats were orally administered with FZJ extract at a dose of 3.76 g/kg body weight (also equivalent to crude drug dose of 12 g/kg body weight, Table S4). Blood samples were collected and treated as mentioned above in the PK study of ZJ extract.
PK parameters of the 12 alkaloids including AUC0→t, AUC0→∞, mean retention time (MRT0→t, MRT0→∞), and elimination half-life (t1/2) were calculated with non-compartmental method by DAS 2.0 software (Mathematical Pharmacology Professional Committee of China, Shanghai, China). Maximum plasma drug concentration (Cmax) and time to reach the maximum plasma drug concentration (Tmax) were observed directly from the detected C–T data. The results were expressed as arithmetic mean ± standard deviation (SD).

Substance: evodiamine
- Papp (Caco-2 cell monolayer): 23.2 ×10⁻⁶ cm/s
- AIC (Akaike's information criterion method), two-compartment model fitting ([1]; oral FZJ extract): 30.067 ± 6.112
- r^2 (correlation coefficient method), two-compartment model fitting ([1]; oral FZJ extract): 0.853 ± 0.232
- AIC (Akaike's information criterion method), two-compartment model fitting ([1]; oral ZJ extract): 71.547 ± 6.327
- r^2 (correlation coefficient method), two-compartment model fitting ([1]; oral ZJ extract): 0.428 ± 0.169
- AUC0→∞/D (ratio of AUC0→∞ and dose) ([2]; oral FZJ extract): 3.73
- Cmax/D (ratio of Cmax and dose) ([2]; oral FZJ extract): 2.89
- AUC0→∞/D (ratio of AUC0→∞ and dose) ([2]; oral ZJ extract): 8.55
- Cmax/D (ratio of Cmax and dose) ([2]; oral ZJ extract): 2.57
- Stability RE, 3 freeze-thaw cycles ([3]; high QC concentration): 14.57%
- Stability RE, 30 days at −20 °C ([3]; high QC concentration): 12.86%
- Stability RE, 3 freeze-thaw cycles ([3]; low QC concentration): 6.06%
- Stability RE, 30 days at −20 °C ([3]; low QC concentration): −6.27%
- Stability RE, 3 freeze-thaw cycles ([3]; medium QC concentration): −2.19%
- Stability RE, 30 days at −20 °C ([3]; medium QC concentration): −9.8%
- Stability RE, processed samples' stability ([3]; high QC concentration): 2.87%
- Stability RE, processed samples' stability ([3]; low QC concentration): 1.14%
- Stability RE, processed samples' stability ([3]; medium QC concentration): −6.55%
- Tmax ([4]; oral FZJ extract): 0.5 h
- Tsec (time of the secondary peak in C–T curve) ([4]; oral FZJ extract): 180 min
- AUC0→t ([4]; oral FZJ extract): 10.83 ± 1.77 ng·h/mL
- AUC0→∞ ([4]; oral FZJ extract): 11.72 ± 2.06 ng·h/mL
- Cmax ([4]; oral FZJ extract): 9.10 ± 4.79 ng/mL
- Csec (drug concentration of the secondary peak in C–T curve) ([4]; oral FZJ extract): 2.21 ± 0.85 ng/mL
- MRT0→t ([4]; oral FZJ extract): 2.9718 ± 0.381 h
- MRT0→∞ ([4]; oral FZJ extract): 4.2445 ± 0.7018 h
- t1/2 ([4]; oral FZJ extract): 3.798 ± 1.05 h
- Tmax ([4]; oral ZJ extract): 1 h
- Tsec (time of the secondary peak in C–T curve) ([4]; oral ZJ extract): 300 min
- AUC0→t ([4]; oral ZJ extract): 31.71 ± 2.94 ng·h/mL
- AUC0→∞ ([4]; oral ZJ extract): 31.84 ± 3.11 ng·h/mL
- Cmax ([4]; oral ZJ extract): 9.59 ± 4.22 ng/mL
- Csec (drug concentration of the secondary peak in C–T curve) ([4]; oral ZJ extract): 5.54 ± 3.14 ng/mL
- MRT0→t ([4]; oral ZJ extract): 5.2532 ± 0.747 h
- MRT0→∞ ([4]; oral ZJ extract): 5.9967 ± 0.761 h
- t1/2 ([4]; oral ZJ extract): 2.3552 ± 1.194 h
